In US20240285644A1, “ASSESSING AND TREATING PROSTATE CANCER” (Mayo Foundation for Medical Education and Research, priority 2021, published 2024):

Test system: androgen receptor (AR)
Assay: Androgen receptor level in LNCaP cells (Western blot)
Assay type: cell-based

## CNC(=O)c1ccc(N2C(=S)N(c3ccc(C#N)c(C(F)(F)F)c3)C(=O)C2(C)C)cc1F [enzalutamide]
  AR level in LNCaP cells: downregulates AR
